ChEMBL document CHEMBL4428025 (J Med Chem, 2016)

Sequences of proteins named here, by UniProt entry; tags and fusion partners are left off. A change or cut given only in a name is not applied to a line headed by its entry.
UniProt P35372, whole entry, looked up: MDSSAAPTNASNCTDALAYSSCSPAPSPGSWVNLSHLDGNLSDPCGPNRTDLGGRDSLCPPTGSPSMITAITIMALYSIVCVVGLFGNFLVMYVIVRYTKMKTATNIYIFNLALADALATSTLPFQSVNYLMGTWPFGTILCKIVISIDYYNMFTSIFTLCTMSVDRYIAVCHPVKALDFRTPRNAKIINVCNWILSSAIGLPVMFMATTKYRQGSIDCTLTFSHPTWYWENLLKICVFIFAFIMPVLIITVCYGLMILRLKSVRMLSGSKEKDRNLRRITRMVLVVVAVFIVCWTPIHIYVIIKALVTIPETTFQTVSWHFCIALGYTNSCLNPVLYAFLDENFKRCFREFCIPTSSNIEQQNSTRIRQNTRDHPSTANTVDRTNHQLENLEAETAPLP
UniProt P41146: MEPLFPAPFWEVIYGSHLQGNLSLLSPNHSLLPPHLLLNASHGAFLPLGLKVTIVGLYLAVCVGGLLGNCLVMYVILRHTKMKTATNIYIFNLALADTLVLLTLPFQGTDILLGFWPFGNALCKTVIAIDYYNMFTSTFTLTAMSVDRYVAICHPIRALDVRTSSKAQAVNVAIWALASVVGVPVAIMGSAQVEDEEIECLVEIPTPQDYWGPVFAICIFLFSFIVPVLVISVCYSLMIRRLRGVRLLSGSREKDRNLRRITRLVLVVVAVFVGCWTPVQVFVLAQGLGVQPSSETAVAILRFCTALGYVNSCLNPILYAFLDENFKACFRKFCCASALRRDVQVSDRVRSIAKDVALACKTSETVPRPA

How the values were obtained:
Mu-type opioid receptor [1] = biological target: T1, Mu-type opioid receptor (Homo sapiens, UniProt P35372); assay: Displacement of [3H]diprenorphine from human mu opioid receptor expressed in CHO cell membranes after 1 hr by microplate scintillation counting method
Nociceptin receptor [2] = biological target: T2, Nociceptin receptor (Homo sapiens, UniProt P41146); assay: Agonist activity at human nociceptin opioid receptor expressed in CHO cell membranes by GTPgamma(35)S binding assay
Nociceptin receptor [3] = biological target: T2, Nociceptin receptor; assay: Displacement of [125I][Tyr14]nociceptin/orphanin FQ from human nociceptin opioid receptor expressed in CHO cell membranes after 1 hr by microplate scintillation counting method
Mu-type opioid receptor [4] = biological target: T1, Mu-type opioid receptor; assay: Displacement of [3H]DAMGO from recombinant human mu opioid receptor expressed in CHO cell membranes after 60 mins by scintillation counting method

NCc1ccccc1C1(O)CC2CCC(C1)N2C(c1ccccc1Cl)c1ccccc1Cl (centres undefined)
pKi (Mu-type opioid receptor [1]): 7.68 | pEC50 (Nociceptin receptor [2]): 8.82 | pKi (Nociceptin receptor [3]): 9.42

Cc1cccc2c1CC[C@H](CN1CCC(c3c(Cl)cccc3Cl)CC1)C[C@@H]2O
pKi (Mu-type opioid receptor [4]): 7.24

pEC50, pKi: −log10 of the molar value.
